# According to patent publication US8106020B2, “Calcium receptor activator” (Ajinomoto Co., Inc., priority 2005, dated 2012):
# Molecular target: T1, human calcium receptor (Homo sapiens, UniProt P41180)
# T1 construct: expressed in transfected cells; host or cells: Xenopus laevis oocytes microinjected with cRNA; gene amplified by PCR from human kidney cDNA (Clontech) and cloned in pBR322
# T1 sequence (P41180 20-1078): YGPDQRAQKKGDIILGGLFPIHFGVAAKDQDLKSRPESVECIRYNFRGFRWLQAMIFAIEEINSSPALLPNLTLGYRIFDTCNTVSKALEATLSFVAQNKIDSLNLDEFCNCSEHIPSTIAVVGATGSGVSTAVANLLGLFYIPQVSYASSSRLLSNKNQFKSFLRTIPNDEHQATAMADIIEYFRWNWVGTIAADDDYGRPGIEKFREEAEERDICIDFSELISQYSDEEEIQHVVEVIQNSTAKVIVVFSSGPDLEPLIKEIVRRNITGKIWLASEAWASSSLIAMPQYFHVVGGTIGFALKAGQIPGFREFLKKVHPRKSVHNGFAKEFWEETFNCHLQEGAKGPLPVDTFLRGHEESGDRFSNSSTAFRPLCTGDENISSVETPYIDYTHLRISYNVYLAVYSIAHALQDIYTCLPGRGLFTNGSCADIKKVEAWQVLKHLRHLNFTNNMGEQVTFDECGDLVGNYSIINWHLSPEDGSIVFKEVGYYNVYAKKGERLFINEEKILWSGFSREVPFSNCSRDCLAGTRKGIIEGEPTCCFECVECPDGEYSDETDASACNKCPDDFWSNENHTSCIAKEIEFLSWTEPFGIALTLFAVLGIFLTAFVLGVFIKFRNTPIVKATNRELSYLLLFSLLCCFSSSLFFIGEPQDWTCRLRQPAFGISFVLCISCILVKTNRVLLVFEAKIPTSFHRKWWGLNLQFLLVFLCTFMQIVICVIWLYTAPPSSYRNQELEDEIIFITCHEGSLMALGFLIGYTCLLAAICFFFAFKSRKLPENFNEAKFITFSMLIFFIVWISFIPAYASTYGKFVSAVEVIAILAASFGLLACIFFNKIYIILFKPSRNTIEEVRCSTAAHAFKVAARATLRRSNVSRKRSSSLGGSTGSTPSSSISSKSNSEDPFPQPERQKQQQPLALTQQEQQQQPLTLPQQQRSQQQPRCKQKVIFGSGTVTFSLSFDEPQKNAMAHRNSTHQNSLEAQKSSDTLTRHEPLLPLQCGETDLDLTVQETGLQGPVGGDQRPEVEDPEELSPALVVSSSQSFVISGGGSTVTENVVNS
# Test: Calcium receptor activation activity: Ca ion concentration-dependent Cl ionic current in Xenopus laevis oocyte expression system
# Assay type: cell-based
# Settings: FIG. 4
# Procedure: To evaluate calcium receptor activation activity, a Ca ion concentration-dependent Cl ionic current measuring method using a Xenopus laevis oocyte expression system was used. If each activator is added to Xenopus laevis oocytes expressing the calcium receptor, intracellular Ca ions increase. Then, the Ca ion concentration-dependent Cl channel opens, and the intracellular current value changes as an ionic current. By measuring the change in this intracellular current value, the presence or absence of calcium receptor activation activity can be determined.
# Specifically, the abdomen of Xenopus laevis was opened, and an egg batch was taken out and treated with a 1% collagenase solution at 20° C. for 2 hours to obtain individual oocytes. Into the oocytes, 50 nl of 1 μg/μl receptor cRNA or 50 nl of sterilized water per oocyte was introduced by using a micro glass capillary, and the oocytes were cultured at 18° C. for 2 or 3 days. For the culture, a solution obtained by adding 2 mM pyruvic acid, 10 U/ml of penicillin, and 10 μg/ml of streptomycin to the solution in Example 2 was used. After the culture, a test solution was added to the oocytes containing either the cRNA or sterilized water. Electrophysiological measurement was performed by using an amplifier, Geneclamp500 (Axon), and recording software, AxoScope 9.0 (Axon). The oocytes were voltage-clamped at −70 mV by the double electrode voltage clamp method, and the intracellular current was measured via the Ca ion concentration-dependent Cl ion channel. The maximum value of the intracellular current was considered as the response current value.
# Calcium receptor activation activity of L-amino acids was evaluated by using the method described in Example 6. That is, oocytes containing either cRNA of the calcium receptor or sterilized water were prepared, and voltage-clamped at −70 mV by the double electrode voltage clamp method. To the voltage-clamped oocytes, alanine (10 mM), arginine (10 mM), asparagine (10 mM), aspartic acid (10 mM), cysteine (10 mM), glutamine (10 mM), glutamic acid (10 mM), glycine (10 mM), histidine (10 mM), isoleucine (10 mM), leucine (10 mM), lysine (10 mM), methionine (10 mM), phenylalanine (10 mM), proline (10 mM), serine (10 mM), threonine (10 mM), tryptophan (10 mM), tyrosine (10 mM), valine (10 mM), ornithine (10 mM), taurine (10 mM), or hydroxyproline (10 mM) was added, and Ca ion concentration-dependent Cl response current was measured. […] As for the aforementioned amino acids, the activation activity was reported in Proc. Natl. Acad. Sci. USA, 2000 Apr. 25, 97(9):4814-9.
# Calcium receptor activation activity of D-cysteine was evaluated by using the method described in Example 6. That is, oocytes containing either cRNA of the calcium receptor or sterilized water were prepared, and voltage-clamped at −70 mV by the double electrode voltage clamp method. To the voltage-clamped oocytes, D-cysteine (10 mM), L-cysteine (10 mM), D-tryptophan (10 mM), or L-tryptophan (10 mM) was added, and Ca ion concentration-dependent Cl response current was measured.
# Calcium receptor activation activity of peptides was evaluated by using the method described in Example 6. […]
# Calcium receptor activation activity of peptides was evaluated in the same manner as that of Example 10. Each of the peptides shown in Table 2 was added to voltage-clamped oocytes at 1000 μM, 300 μM, 100 μM, 30 μM, 10 μM, 3 μM, 1 μM, 0.3 μM, and 0.1 μM, and Ca ion concentration-dependent Cl response current was measured.
Substance,calcium receptor activation activity (Cl response current) (peptide 500 μM),calcium receptor activation activity (Cl response current) (peptide 50 μM)
γ-Glu-Gly (EG),definitive calcium receptor activation activity,
γ-Glu-Val (EV),,definitive calcium receptor activation activity
γ-Glu-Ala (EA),,definitive calcium receptor activation activity
γ-Glu-Thr (ET),,definitive calcium receptor activation activity
γ-Glu-Met (EM),definitive calcium receptor activation activity,
